The numbers were not newly measured in patent publication US6898533B1, “Methods for predicting the biological, chemical, and physical properties of molecules from their spectral properties” (The United States of America as represented by the …, priority 2000, dated 2005), which cites them from elsewhere.

Sequences of proteins named here, by UniProt entry; tags and fusion partners are left off.
UniProt Q62986, whole entry: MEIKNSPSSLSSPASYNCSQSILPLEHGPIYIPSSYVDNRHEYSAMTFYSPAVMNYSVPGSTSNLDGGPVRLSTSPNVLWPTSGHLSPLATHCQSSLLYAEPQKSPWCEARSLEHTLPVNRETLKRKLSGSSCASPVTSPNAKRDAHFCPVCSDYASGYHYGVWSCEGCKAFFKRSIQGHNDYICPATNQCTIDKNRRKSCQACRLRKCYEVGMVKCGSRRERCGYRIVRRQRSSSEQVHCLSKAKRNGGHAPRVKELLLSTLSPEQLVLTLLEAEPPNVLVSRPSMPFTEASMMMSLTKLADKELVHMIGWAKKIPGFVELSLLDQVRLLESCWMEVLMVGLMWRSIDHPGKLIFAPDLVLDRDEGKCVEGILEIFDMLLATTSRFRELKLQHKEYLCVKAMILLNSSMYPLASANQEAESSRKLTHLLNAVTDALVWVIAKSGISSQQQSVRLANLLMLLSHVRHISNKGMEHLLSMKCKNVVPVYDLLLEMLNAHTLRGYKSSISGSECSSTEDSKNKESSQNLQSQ

The series has as its target beta (ERβ) estrogen receptor (Rattus norvegicus, UniProt Q62986). To be noted: log of relative binding affinity, 17-β-estradiol RBA = 100; cited from earlier work.

Consider `COc1ccc2c(c1)CCC(c1ccccc1)=C2c1ccc(OCCN2CCCC2)cc1` [Nafoxidine], for which the “Log-(RBA) beta” value is reported as 1.20.
